According to patent US5328902A, “7-(substituted)-9-[(substituted glycyl)amido]-6-demethyl-6-deoxytetracyclines” (American Cyanamid Co., priority 1992, dated 1994):

Test system: TetM S30 (tetM protected ribosomes, derivative of MRE600 containing the tetM determinant)
Assay: E. coli in vitro protein translation system, TetM S30
Settings: for inhibition of protein synthesis occurring on tetM protected ribosomes: coupled transcription and translation system

Row | Compound | % Inhibition TetM S30 (Conc. 0.06 mg/ml) | % Inhibition TetM S30 (Conc. 1.0 mg/ml) | inhibition of protein synthesis occurring on tetM protected ribosomes
1 | CC1CCN(CC(=O)Nc2cc(N(C)C)c3c(c2O)C(=O)C2=C(O)C4(O)C(=O)C(C(N)=O)=C(O)C(N(C)C)C4CC2C3)CC1.Cl.Cl (stereo not drawn) [G, [7S-(7alpha,10aalpha)]-N-[9-(Aminocarbonyl)4,7-bis(dimethylamino)-5,5a,6,6a,7,10,10a,12-octahydro-1,8,10a,ll-tetrahydroxy-10,12-dioxo-2-naphthacenyl]-4-methyl-l-piperidineacetamide dihydrochloride] | 83% | 99% | effective at inhibiting
2 | CN(C)c1ccc(O)c2c1C[C@H]1C[C@H]3[C@H](N(C)C)C(O)=C(C(N)=O)C(=O)[C@@]3(O)C(O)=C1C2=O [O, Minocycline, reference compound] | 0% |  | unable to inhibit
3 | [4S-(4alpha,12aalpha)]-4,7-Bis(dimethylamino)-1,4,4a,5,5a,6,11,12a-octahydro-3,10, 12,12a-tetrahydroxy-1,11-dioxo-9-[[(2-propenylamino)acetyl]amino]-2-naphthacenecarboxamide dihydrochloride | 83% | 98% | effective at inhibiting
4 | [4S-(4alpha,12aalpha)]-4,7-Bis(dimethylamino)-1,4,4a,5,5a,6,11,12a-octahydro-3,10, 12,12a-tetrahydroxy-9-[[[(3-methoxypropyl)amino]acetyl]amino]-1,11-dioxo-2-naphthacenecarboxamide dihydrochloride | 85% |  | effective at inhibiting
5 | [4S-(4alpha,12aalpha)]-4,7-Bis(dimethylamino-1,4,4a,5,5a,6,11,12a-octahydro-3,10, 12,12a-tetrahydroxy-9-[[[(2-(methoxyethyl)amino]acetyl]amino]-1,11-dioxo-2-naphthacenecarboxamide dihydrochloride | 91% | 97% | effective at inhibiting
6 | [4S-(4alpha,12aalpha)]-9-[[[(2,2-Diethoxyethyl)amino]acetyl]amino]-4,7-bis(dimethylamino)-1,4,4a,5,5a,6,11,12a-octahydro-3,10, 12,12a-tetrahydroxy-1,11-dioxo-2-naphthacenecarboxamide dihydrochloride [Compound C] | 65% | 96% | effective at inhibiting
